# Results taken from PubChem BioAssay AID1224865 (Sanford-Burnham Center for Chemical Genomics, 2016).
# Chains of the proteins cited; added tags and fusions are not shown.
# UniProt P41235, whole entry: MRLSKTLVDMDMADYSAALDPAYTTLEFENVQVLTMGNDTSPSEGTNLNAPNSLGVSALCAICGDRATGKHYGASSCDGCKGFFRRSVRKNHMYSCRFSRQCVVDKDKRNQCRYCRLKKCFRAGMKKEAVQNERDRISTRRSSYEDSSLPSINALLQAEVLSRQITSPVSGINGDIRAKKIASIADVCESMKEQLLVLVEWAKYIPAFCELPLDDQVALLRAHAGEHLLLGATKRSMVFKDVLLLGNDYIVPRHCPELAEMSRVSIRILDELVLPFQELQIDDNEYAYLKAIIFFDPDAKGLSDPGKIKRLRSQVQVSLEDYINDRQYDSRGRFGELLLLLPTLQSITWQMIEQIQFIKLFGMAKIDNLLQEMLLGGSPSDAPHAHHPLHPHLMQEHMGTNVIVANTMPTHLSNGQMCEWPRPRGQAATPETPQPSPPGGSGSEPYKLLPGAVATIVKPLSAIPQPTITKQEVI
# The list shows a part of the results, in another mix than the full data. The source made the active and inactive calls. Rule as the data show it: active = activity change above about 30% (passing the limit was not always enough); inactive = the rest.
# Target: Hepatocyte nuclear factor 4-alpha (Homo sapiens) (UniProt P41235)
# Experiment: change in binding of human HNF4A to DNA, primary screen, biochemical, fluorescence polarization, FITC-DNA (AID 1224865)
# Settings: 1 h, at 10 µM, active compounds read high
row,SMILES,activity change
1,CCC(=O)N(c1ccccc1)C1(COC)CCN(CCc2cccs2)CC1,inactive: 0.24%
2,CCC(=O)N(c1ccccc1)C1(COC)CCN(CCn2nnn(CC)c2=O)CC1,inactive: 0.79%
